Measured values as given in article PMC10803289, “Transport and inhibition mechanism of the human SGLT2–MAP17 glucose transporter” (Nature Structural & Molecular Biology, 2023).
Changes are numbered by the printed parent chain. Read-outs that look alike come from different tables or passages of the source.

Key:
[1] = biological target: T1, hSGLT2 S74A (Homo sapiens, UniProt P31639, S74A); type: binding; settings: for Binding Mean: Eadie–Hofstee, S74A
T1 construct: expressed in transfected cells; host or cells: Expi293 cells, crude membrane fraction
Excerpt: (§1) hSGLT2 complementary DNA and human MAP17 cDNA were synthesized and codon-optimized for expression in human cell lines. Both cDNAs were cloned into the pcDNA3.4 vector. The hSGLT2 sequence was fused with an N-terminal signal sequence from human trypsinogen 1, a His10 tag, and sfGFP, followed by a human rhinovirus 3C protease (HRV3C protease) recognition site. Point mutations were introduced into this construct using site-directed mutagenesis. These plasmids were utilized for all experimental procedures conducted in this study.
To examine the inhibition of binding to the crude membrane, mammalian Expi293 cells were co-transfected with the hMAP17 and hSGLT2 plasmids, as described. The cells were collected and disrupted by sonication in a hypotonic buffer (50 mM HEPES–NaOH (pH 7.5), 10 mM KCl and protease inhibitor cocktail) or Na^+-free hypotonic buffer (50 mM Tris–HCl (pH 7.5), 10 mM KCl and protease inhibitor cocktail). The cell debris were removed by centrifugation (2,000g, 5 min, 4 °C). The membrane fraction was collected by ultracentrifugation (112,000g, 30 min, 4 °C) and stored at −80 °C before use. The crude membrane (250 μg per sample) was incubated with SGLT2 inhibitor in an assay buffer (100 mM NaCl and 10 mM HEPES/Tris, pH 7.4) or Na^+-free assay buffer (100 mM choline chloride and 10 mM HEPES/Tris, pH 7.4) at room temperature for 2 h. Reactions were terminated by filtration through a GF/C filter plate (Corning) presoaked in assay buffer containing 0.1% bovine serum albumin. The sample in the filter plate was washed three times with the assay buffer and eluted with acetonitrile: water (80:20, v/v). The extract solution from the filter plate was diluted with water containing candesartan as an internal standard, and the SGLT2 inhibitor concentration was quantified via LC–MS/MS.
(§2) Nonspecific binding was measured using the crude membrane of nontransfected Expi293 cells. Specific binding was calculated by subtracting nonspecific binding from the binding of hSGLT2-expressing cells. Specific binding was normalized to hSGLT2 protein expression levels, measured via FSEC. The equilibrium dissociation constant (Kd) and maximum number of binding sites (Bmax) were calculated via nonlinear regression in GraphPad Prism 8.4.3. The specific binding of the hSGLT2 mutants was normalized to the Bmax of WT hSGLT2.
The concentrations of the extract solution from the filter plate and of the cell lysate were quantified using a tandem mass spectrometry QTRAP6500 System (SCIEX) coupled with an ACQUITY UPLC system (Waters) using the internal standard method. Mobile phases A and B used 10 mM of ammonium bicarbonate and acetonitrile, respectively.

[2] = biological target: T2, hSGLT2 F98A (Homo sapiens, UniProt P31639, F98A); assay: SGLT2 inhibitor-binding assay (AS-MS), crude membrane, F98A mutant; design: expressed in transfected cells; host or cells: Expi293 cells, crude membrane fraction; settings: for Binding (% of WT Bmax): F98A
T2 sequence (P31639 1-672 F98A): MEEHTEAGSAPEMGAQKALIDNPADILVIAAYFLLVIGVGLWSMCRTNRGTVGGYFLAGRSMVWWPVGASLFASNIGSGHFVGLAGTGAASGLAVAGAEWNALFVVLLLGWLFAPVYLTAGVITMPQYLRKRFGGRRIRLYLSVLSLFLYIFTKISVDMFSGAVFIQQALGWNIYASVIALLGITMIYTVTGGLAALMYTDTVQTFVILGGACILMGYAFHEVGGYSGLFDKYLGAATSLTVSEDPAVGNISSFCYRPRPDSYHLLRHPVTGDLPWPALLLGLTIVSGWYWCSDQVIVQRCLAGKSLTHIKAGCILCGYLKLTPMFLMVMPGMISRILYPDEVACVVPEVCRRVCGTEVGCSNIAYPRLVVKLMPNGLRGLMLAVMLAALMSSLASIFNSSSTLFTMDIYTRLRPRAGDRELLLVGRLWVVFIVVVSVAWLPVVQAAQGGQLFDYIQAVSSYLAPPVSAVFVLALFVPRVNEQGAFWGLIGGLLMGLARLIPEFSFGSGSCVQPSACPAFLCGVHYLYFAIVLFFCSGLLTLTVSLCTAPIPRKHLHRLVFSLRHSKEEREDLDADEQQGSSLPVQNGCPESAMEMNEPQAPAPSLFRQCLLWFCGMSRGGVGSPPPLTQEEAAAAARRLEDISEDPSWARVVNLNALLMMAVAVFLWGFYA
T2 sequence (Q13113 1-114 partner): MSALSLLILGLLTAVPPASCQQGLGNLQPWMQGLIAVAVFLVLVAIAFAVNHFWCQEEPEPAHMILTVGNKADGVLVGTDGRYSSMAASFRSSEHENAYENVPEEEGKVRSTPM
Excerpt: as §1
(§3) To examine the inhibition of binding to the crude membrane, mammalian Expi293 cells were co-transfected with the hMAP17 and hSGLT2 plasmids, as described. The cells were collected and disrupted by sonication in a hypotonic buffer (50 mM HEPES–NaOH (pH 7.5), 10 mM KCl and protease inhibitor cocktail) or Na^+-free hypotonic buffer (50 mM Tris–HCl (pH 7.5), 10 mM KCl and protease inhibitor cocktail). The cell debris were removed by centrifugation (2,000g, 5 min, 4 °C). The membrane fraction was collected by ultracentrifugation (112,000g, 30 min, 4 °C) and stored at −80 °C before use. […] The extract solution from the filter plate was diluted with water containing candesartan as an internal standard, and the SGLT2 inhibitor concentration was quantified via LC–MS/MS.
as §2, with “The specific binding of the hSGLT2 mutants was normalized to the Bmax of WT hSGLT2.” left out
(§4) The concentrations of the extract solution from the filter plate and of the cell lysate were quantified using a tandem mass spectrometry QTRAP6500 System (SCIEX) coupled with an ACQUITY UPLC system (Waters) using the internal standard method. […]

[3] = biological target: T3, hSGLT2 F453A (Homo sapiens, UniProt P31639, F453A); assay: SGLT2 inhibitor-binding assay (AS-MS), crude membrane, F453A mutant; design: expressed in transfected cells; host or cells: Expi293 cells, crude membrane fraction; settings: for Binding (% of WT Bmax): F453A
T3 sequence (P31639 1-672 F453A): T2 sequence (P31639 1-672 F98A) with A98F, F453A
T3 sequence (Q13113 1-114 partner): T2 sequence (Q13113 1-114 partner)
Excerpt: as §1, §3
as §2, with “The specific binding of the hSGLT2 mutants was normalized to the Bmax of WT hSGLT2.” left out
as §4

## O=C(CCc1ccc(O)cc1)c1c(O)cc(O)cc1O[C@@H]1O[C@H](CO)[C@@H](O)[C@H](O)[C@H]1O [Phlorizin]
[1]; phlorizin 25 nM (inferred)
  Binding Mean: 1.4408
[1]; phlorizin 50 nM (inferred)
  Binding Mean: 2.1250
[1]; phlorizin 100 nM (inferred)
  Binding Mean: 2.9467
[1]; phlorizin 200 nM (inferred)
  Binding Mean: 3.4414
[1]; phlorizin 300 nM (inferred)
  Binding Mean: 3.9550
[1]; phlorizin 500 nM (inferred)
  Binding Mean: 4.6710
[1]; phlorizin 1000 nM (inferred)
  Binding Mean: 7.1027
[1]; phlorizin 3000 nM (inferred)
  Binding Mean: 6.1914
[1]; phlorizin 5000 nM (inferred)
  Binding Mean: 8.4336
[1]; S74A mutant
  low-affinity binding phase: lost
[2]; F98A single mutant
  phlorizin binding (in words): did not bind
[2]; Phlorizin 25 nM
  Binding (% of WT Bmax): 0.0000%
[2]; Phlorizin 50 nM
  Binding (% of WT Bmax): 0.0000%
[3]; F453A single mutant
  phlorizin binding (in words): did not bind
[3]; Phlorizin 25 nM
  Binding (% of WT Bmax): 0.0000%
[3]; Phlorizin 50 nM
  Binding (% of WT Bmax): 0.0000%
